Measured values: ChEMBL document CHEMBL1129539, “2,4-diamino-5-deaza-6-substituted pyrido[2,3-d]pyrimidine antifolates as potent and selective nonclassical inhibitors of dihydrofolate reductases” (J Med Chem, 1996)

Assay: Selectivity ratio is defined as IC50 human DHFR/IC50 tgDHFR

Row | SMILES | Selectivity ratio
1 | COc1ccc(CN(C)c2cnc3nc(N)nc(N)c3c2)c(OC)c1OC | 20.4
2 | CN(Cc1ccccc1)c1cnc2nc(N)nc(N)c2c1 | 20
